For one experiment, the target named is Bcl-w (Homo sapiens, UniProt Q92843). The experiment is described as follows: receptor | Bcl-w.
The target in a further experiment is Bcl-2 (Homo sapiens, UniProt P10415). The experiment is described as follows: receptor | Bcl-2.
The next experiment has as its target Mcl-1 (Homo sapiens, UniProt Q07820). The experiment is described as follows: receptor | Mcl-1. To be noted: read-out: receptor | Mcl-1.
For another experiment, the target named is Bfl-1 (Homo sapiens, UniProt Q16548). Kind of experiment: receptor | Bfl-1.
The next experiment concerns the target Bcl-xL (Homo sapiens, UniProt Q07817). Kind of experiment: receptor | Bcl-xL.

Sequences of proteins named here, by UniProt entry; tags and fusion partners are left off. A change or cut given only in a name is not applied to a line headed by its entry. Residues count along the entry.
UniProt Q92843, 2-193 limits assumed: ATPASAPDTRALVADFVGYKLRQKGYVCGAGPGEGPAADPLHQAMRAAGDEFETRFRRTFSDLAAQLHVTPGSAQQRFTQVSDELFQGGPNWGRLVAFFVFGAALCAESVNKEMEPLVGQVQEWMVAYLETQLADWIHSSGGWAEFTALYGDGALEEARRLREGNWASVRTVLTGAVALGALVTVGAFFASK
UniProt P10415, whole entry, looked up: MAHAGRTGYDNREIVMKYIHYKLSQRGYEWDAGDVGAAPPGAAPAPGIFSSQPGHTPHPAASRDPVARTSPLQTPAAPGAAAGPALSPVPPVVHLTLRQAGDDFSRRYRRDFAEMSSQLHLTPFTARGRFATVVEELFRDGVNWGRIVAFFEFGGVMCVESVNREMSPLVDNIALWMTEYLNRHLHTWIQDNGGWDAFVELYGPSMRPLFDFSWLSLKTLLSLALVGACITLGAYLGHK
UniProt Q07820, whole entry, looked up: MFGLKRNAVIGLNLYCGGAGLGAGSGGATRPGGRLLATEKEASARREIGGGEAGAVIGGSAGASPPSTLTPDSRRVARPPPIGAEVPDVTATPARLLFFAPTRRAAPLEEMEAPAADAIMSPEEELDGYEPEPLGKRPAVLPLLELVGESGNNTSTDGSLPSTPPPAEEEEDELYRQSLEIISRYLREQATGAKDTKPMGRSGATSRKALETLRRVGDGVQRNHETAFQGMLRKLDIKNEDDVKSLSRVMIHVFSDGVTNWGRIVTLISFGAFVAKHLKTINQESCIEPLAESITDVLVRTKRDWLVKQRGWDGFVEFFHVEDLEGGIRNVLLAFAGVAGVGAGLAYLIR
UniProt Q16548: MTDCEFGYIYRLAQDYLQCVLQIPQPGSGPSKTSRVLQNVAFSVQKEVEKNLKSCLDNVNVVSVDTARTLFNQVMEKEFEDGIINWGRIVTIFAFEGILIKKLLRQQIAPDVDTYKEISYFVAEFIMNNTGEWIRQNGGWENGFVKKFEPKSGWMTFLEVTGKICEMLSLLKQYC
UniProt Q07817, whole entry, looked up: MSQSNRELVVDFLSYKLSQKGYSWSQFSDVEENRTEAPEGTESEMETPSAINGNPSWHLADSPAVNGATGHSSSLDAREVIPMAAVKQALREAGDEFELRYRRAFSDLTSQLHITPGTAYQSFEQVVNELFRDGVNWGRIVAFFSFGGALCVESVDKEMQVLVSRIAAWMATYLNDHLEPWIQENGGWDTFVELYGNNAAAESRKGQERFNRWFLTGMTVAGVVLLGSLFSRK

Consider RPEIWMTQGLRRLGDEINAYYAR [MS1], for which the Kd came out at 1300 ± 230 nM on Bcl-w and 2300 ± 1500 nM at Bcl-2.
In the case of RPEIWLTQSLQRLGDEINAYYAR [MS2], the Kd at Mcl-1 came to 1.5 ± 1.2 nM; on Bfl-1 it was 3100 ± 2300 nM; on Bcl-w, 250 ± 76 nM; on Bcl-xL, 1400 ± 500 nM; on Bcl-2, 6200 ± 4100 nM.

Source of the values: US11142554B2 (MASSACHUSETTS INSTITUTE OF TECHNOLOGY, priority 2015, dated 2021).
